Several values for one entry are separate records, joined by “and”; a condition that tells them apart may be missing. Equal values may be shown once. This is one part of the list. Entries with a potency or affinity are not part of this list. Activity calls are given as the source filed them. No stated cut-off is given here; in the data, active means activation above about 50% (passing the limit was not always enough); inactive means the rest.
biological target: Kappa-type opioid receptor (Homo sapiens) (UniProt P41145); assay: KOR agonists, beta-arrestin recruitment, primary screen, cell-based, luminescence, uHTS (AID 1777); conditions: at 10 µM, hits give high values

Chains of the proteins cited; added tags and fusions are not shown. Lines headed by an entry give the natural chain unless they say otherwise; changes in a name come on top.
UniProt P41145: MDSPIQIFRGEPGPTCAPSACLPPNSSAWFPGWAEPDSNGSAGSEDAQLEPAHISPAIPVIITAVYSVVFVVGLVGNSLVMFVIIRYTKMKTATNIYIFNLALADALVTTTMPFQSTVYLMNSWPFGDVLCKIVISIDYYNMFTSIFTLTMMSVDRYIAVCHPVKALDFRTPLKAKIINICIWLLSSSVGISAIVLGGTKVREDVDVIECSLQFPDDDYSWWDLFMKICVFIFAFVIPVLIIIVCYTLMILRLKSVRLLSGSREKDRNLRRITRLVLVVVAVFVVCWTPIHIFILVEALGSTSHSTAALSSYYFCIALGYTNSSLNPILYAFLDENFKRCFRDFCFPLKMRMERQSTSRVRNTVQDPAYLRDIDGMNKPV

Compound	activation
CCC(C)c1ccc2oc(-c3ccc(NC(=O)Cn4cnc5c(=O)n(C)c(=O)n(C)c54)cc3)nc2c1 (stereo not drawn)	inactive: -3.5%
COCCN1CCn2c(nc3cc(NC(=O)c4ccc(OC)cc4)ccc32)C1	inactive: -3.2%
CCC(=O)Nc1nnc(/C=C/c2ccccc2)s1	inactive: 2.4%
COc1ccc(S(=O)(=O)N2CCn3c2nc2ccccc23)cc1	inactive: 0.3%
Cc1ccc2c(c1)C1CN(C)CCC1N2C(=O)COc1ccccc1F (stereo not drawn)	inactive: 1%
Nc1ncnc2c1ncn2CCNCCc1ccccc1	inactive: -2.5%
O=C(Cn1c(C(F)(F)F)nc2ccccc21)NCCCN1CCOCC1	inactive: -5%
CCCCC(=O)Nc1nnc(/C=C/c2ccc(OC)cc2)s1	inactive: -1.7%
CC(C)C[C@H](NC(=O)N1CCn2c1nc1ccccc12)C(=O)NCCc1ccccc1	inactive: -2.1%
Cc1cc(C)cc(N(CC(=O)N2CCn3c2nc2ccccc23)S(=O)(=O)c2c(C)noc2C)c1	inactive: 0.9%
O=C(C1CCN(S(=O)(=O)c2cccc3cccnc23)CC1)N1CCn2c1nc1ccccc12	inactive: -33.4%
Cc1ccc(N(CC(=O)N2CCn3c2nc2ccccc23)S(=O)(=O)c2c(C)n[nH]c2C)cc1	inactive: -3.3%
CC1c2nc3ccccc3n2C(CC(=O)NCc2ccccn2)C(=O)N1Cc1ccccc1 (stereo not drawn)	inactive: -2.8%
CC(=O)Nc1ccc(C(=O)CSc2nc3ccccc3n2CC(=O)N2CCCC2)cc1	inactive: 1.4%
Cc1ccc2c(c1)C1CN(C)CCC1N2C(=O)c1cccs1 (stereo not drawn)	inactive: 0.9%
Nc1ncnc2c1ncn2CCN1CCOCC1	inactive: 10.2%
Cc1ccc2c(c1)C1CN(C)CCC1N2C(=O)COc1ccc(N(C)C(=O)C(C)(C)C)cc1 (stereo not drawn)	inactive: 0.8%
CCN(CC)CCNC(=S)N1CCn2c(nc3ccccc32)C1	inactive: -1.4%
CC(C)[C@H](NC(=O)N1CCn2c1nc1ccccc12)C(=O)NC1CCCCC1	inactive: 0.9%
COc1ccc(/C=N/c2nc3ccccc3n2CCN2CCCCC2)cc1OC	inactive: -2.6%
Cc1cc(SC(NC(=O)c2ccccc2)C(Cl)(Cl)Cl)nc(C(C)C)n1 (stereo not drawn)	inactive: -2.7%
CC(=O)Nc1ccc(NC(=O)Cn2c(CC(=O)N3CCCC3)nc3ccccc32)cc1	inactive: -6%
CC(C)[C@H](NC(=O)N1CCn2c1nc1ccccc12)C(=O)N1CCCCC1	inactive: 4.7%
Cc1ccc(-c2csc(N3CCC[C@@H]3C(=O)NCCn3c(C(F)(F)F)nc4ccccc43)n2)cc1	inactive: 3.3%

Compound	activation
CCCNC(=O)CC1C(=O)N(Cc2ccccc2)C(C)c2nc3ccccc3n21 (stereo not drawn)	inactive: 2.9%
Cc1nc2ccccc2n1CC(=O)NCCN1CCCC1	inactive: -0.3%
CC1(C)c2ccccc2N2CCC(=O)NC21/C=C/c1ccco1 (stereo not drawn)	inactive: 0.2%
Cc1ccsc1/C=N/NC(=O)Cn1cnc2ccccc21	inactive: 10.6%
ClCCSc1nnc(-c2cccnc2)o1	inactive: -5.2%
Cn1c(=O)c2c(ncn2CC(=O)N2CCN(c3cccc(Cl)c3)CC2)n(C)c1=O	inactive: -1.8%
CC(C)NC(=O)Cn1c(SCC(=O)c2ccc(F)cc2)nc2ccccc21	inactive: 3.4%
Cc1ccc2c(c1)C1CN(C)CCC1N2C(=O)CCCN1C(=O)c2cccc3cccc(c23)C1=O (stereo not drawn)	inactive: -1.3%
N=c1n(CCN2CCCCC2)c2ccccc2n1CC(=O)c1cccc([N+](=O)[O-])c1	inactive: 1.5%
COc1ccccc1NC(=O)N1CCn2c(nc3ccccc32)C1	inactive: -4%
CCC(=O)Nc1nc2ccccc2n1CCN(CC)CC	inactive: -1.9%
CC(C)c1ccc(OP(=O)(Nc2ccccn2)Oc2ccccc2F)cc1 (stereo not drawn)	inactive: 1.5%
c1csc(CNc2nc3ccccc3n2CCN2CCOCC2)c1	inactive: 6.8%
CCC(C(=O)NC1CCCCC1)n1c(SCc2ccccc2F)nc2ccncc21 (stereo not drawn)	inactive: 2.7%
Oc1ccccc1CNc1nc2ccccc2n1CCN1CCCCC1	inactive: 5.1%
Cc1nc2ccccc2n1C1CCN(Cc2nnnn2CCc2ccccc2)CC1	inactive: -3.4%
COc1ccc(CCNC(=O)[C@@H](NC(=O)N2CCn3c2nc2ccccc23)C(C)C)cc1OC	inactive: 2.6%
N=c1n(CCN2CCCCC2)c2ccccc2n1CC(=O)c1ccc(Cl)c(Cl)c1	inactive: 3.5%
CC1c2nc3ccccc3n2C(CC(=O)NCCCN2CCOCC2)C(=O)N1Cc1ccccc1 (stereo not drawn)	inactive: -1.6%
O=[N+]([O-])c1cc([N+](=O)[O-])c(-c2ccn[nH]2)s1	inactive: -0.5%
O=C(Cn1c(-c2ccccn2)nc2ccccc21)NCCN1CCOCC1	inactive: -2.4%
O=C(Cn1c2[n+](c3ccc(C(F)(F)F)cc31)CCCCC2)Nc1c(F)cccc1F	inactive: -1.5%
Cn1c(=O)c2c(ncn2CC(=O)Nc2nc(-c3ccccc3Cl)cs2)n(C)c1=O	inactive: 6.1%
C=C(C)Cn1c(=O)c2c(nc3n2CCN3c2cccc(Cl)c2C)n(C)c1=O	inactive: 14.2%

Compound	activation
CCN(CC)C(=S)SC(NC=O)C(Cl)(Cl)Cl (stereo not drawn)	inactive: -3%
O=C(Nc1nc2ccccc2n1CCN1CCOCC1)c1cn(-c2ccccc2)nc1-c1ccccc1	inactive: 2%
CC(C)NC(=O)NP(=O)(Oc1ccccc1)Oc1ccccc1	inactive: -0.1%
O=C(CCNC(=O)N1CCn2c1nc1ccccc12)NCc1ccc(F)cc1	inactive: -5.5%
O=C(Cn1c(C(F)(F)F)nc2ccccc21)N1CCCC1	inactive: -0.1%
Cc1ccc(Cn2nnnc2CN2CCC(n3nnc4cc(C)ccc43)CC2)cc1	inactive: 7.4%
CC1CCN(C(=O)Cn2cnc3c2c(=O)n(C)c(=O)n3C)c2ccccc2S1 (stereo not drawn)	inactive: -1.5%
Cn1c(=O)c2c(nc(CN3CCC(Cc4ccccc4)CC3)n2CCN2CCOCC2)n(C)c1=O	inactive: 2.3%
Cc1cccc(CSc2nc3ccncc3n2CC(=O)Nc2cc(C)cc(C)c2)c1	inactive: 2.7%
C[C@H](NC(=O)N1CCn2c1nc1ccccc12)C(=O)NC1CC1	inactive: 3.2%
CCC(=O)Nc1cccc(C(=O)/C=C/c2ccc(F)cc2)c1	inactive: -6.7%
Cc1ccc(NC(=O)Cn2cnc3c(=O)n(C)c(=O)n(C)c32)c(C)c1	inactive: -2.1%
N=c1n(CCCOc2ccc(Br)cc2)c2ccccc2n1CC(N)=O	inactive: 3.6%
COc1ccc(NC(=O)Cn2c(NCC(C)O)nc3ccccc32)cc1Cl (stereo not drawn)	inactive: 5%
O=C(Cn1c2[n+](c3ccc(C(F)(F)F)cc31)CCCCC2)Nc1ccc(Br)cc1	inactive: -1.1%
CC(O)c1nc2ccccc2n1CC(=O)Nc1ccc(F)cc1Cl (stereo not drawn)	inactive: 1.7%
CN1CCC(N(C)c2nc(-c3ccc([N+](=O)[O-])cc3)nc3ccccc23)CC1	inactive: 2.6%
C[C@H](NC(=O)N1CCn2c1nc1ccccc12)C(=O)NCc1ccco1	inactive: 0.6%
O=C(Nc1ccc(F)cc1)N1CCn2c(nc3ccccc32)C1	inactive: -0.4%
CC(NC(=O)[C@H](C)NC(=O)N1CCn2c1nc1ccccc12)c1ccccc1 (stereo partly drawn)	inactive: -4.4%
O=C1Nc2ccccc2C12Nc1ccccc1-c1nc3ccccc3n12 (stereo not drawn)	inactive: 0.2%
Cc1ccccc1OCC(O)Cn1c(=N)n(CCN2CCOCC2)c2ccccc21 (stereo not drawn)	inactive: -2.4% and inactive: 1.2%
Cc1ccccc1NC(=O)Cn1c(=O)n(C)c2ccccc21	inactive: 7.1%
CCN(CC)CCn1c(NCc2ccc3c(c2)OCO3)nc2ccccc21	inactive: 5.4%

Compound	activation
O=C(NCc1ccccc1)N1CCn2c(nc3ccccc32)C1	inactive: -2.1%
Cn1c(=O)c2c(ncn2CC(=O)N/N=C/C(Br)=C/c2ccccc2)n(C)c1=O	inactive: -0.8%
Cc1ccc(S(=O)(=O)Nc2ccc3c(c2)nc2n3CCN(Cc3ccccc3)C2)cc1	inactive: -1%
C[As](=O)(O)c1cccc(C(=O)O)c1	inactive: 0.4%
COc1ccc(NC(=O)N2CCn3c2nc2ccccc23)cc1	inactive: 1.4%
O=[As](O)(c1ccc(O)cc1)c1ccccc1O	inactive: 3.5%
CN1CCN(c2nc3c(c(=O)[nH]c(=O)n3C)n2CC(N)=O)CC1	inactive: 11.9%
CSc1nc2ccccc2n1CC(=O)Nc1c(C)cccc1C	inactive: -6.2%
Cc1ccc(SCc2nc3ccccc3n2CC(=O)Nc2c(C)cccc2C)cc1	inactive: -2%
Brc1ccc(CNc2nc3ccccc3n2CCN2CCCCC2)cc1	inactive: 5.2%
COc1ccc(/C=N/NC(=O)Cn2c(Cc3ccc(OC)c(OC)c3)nc3ccccc32)cc1	inactive: 6.4%
COCCn1c(=O)c2c(nc3n2CCN3c2ccc(C)cc2)n(C)c1=O	inactive: -3%
CC(Cc1ccc(O)cc1)NCC(O)c1cc(O)cc(O)c1 (stereo not drawn)	inactive: 0.9%
Cc1ccc(OP(=O)(Nc2ccc([N+](=O)[O-])cn2)Oc2ccc(C)cc2)cc1	inactive: 0.8%
Fc1ccc2c(c1)nnn2C1CCN(Cc2ccccc2)CC1	inactive: 4.5%
O=C(Cn1c(C(F)(F)F)nc2ccccc21)N/N=C/c1ccco1	inactive: 0.1%
CCOC(=O)Cn1c(=O)c2c(nc3n2CCN3Cc2ccccc2)n(C)c1=O	inactive: 2.4%
CN(C)CCn1cnc2c1c(=O)n(C)c(=O)n2C	inactive: 0.3%
Cc1ccc2nc3c(c(C)c2c1)CC(C(Cl)Cl)S3 (stereo not drawn)	inactive: 1%
COc1ccc(CCNC(=O)[C@H](CCSC)NC(=O)N2CCn3c2nc2ccccc23)cc1OC	inactive: -0.5%
COc1cc(NC(=O)[C@@H](NC(=O)N2CCn3c2nc2ccccc23)C(C)C)cc(OC)c1	inactive: 5.9%
